# In patent US20070149457A1, “Stable solid forms of enterostatin” (priority 2005, published 2007):
# Experiment: Humidity stress experiments at 58% relative humidity
# Assay type: physicochemical
# Conditions: 58% RH
# Text: A sample of this enterostatin acetate, 1-hydroxy-2-naphthoic acid co-complex of the invention was stressed at 58% relative humidity for 4 or 10 days.
# A sample of this enterostatin chloride, 1-hydroxy-2-naphthoic acid co-complex of the invention was stressed at 58% relative humidity for 4 or 10 days.
# A sample of each co-complex of the above examples was stressed at 58% relative humidity for either 4 or 10 days. […] The co-complex comprising enterostatin sulfate and piperazine as the guest (Example 6) was a white film after 4 days.
# The cocrystal guests piperazine and 1-OH-2-napthoic acid were stressed at 58% relative humidity.
substance,measurement,setting,value
"Enterostatin Acetate, Gentisic Acid [Example 4]",Observations after humidity stress,10 days,Deliquesced
"Enterostatin Phosphate, Adipic Acid [Example 9]",Observations after humidity stress,10 days,Tacky white goo
"Enterostatin Phosphate, Piperazine [Example 8]",Observations after humidity stress,4 days,Rounded thick tacky solid
"Enterostatin Sulfate, Piperazine [Example 6]",Observations after humidity stress,4 days,Transparent white film
